Earlier results on one compound are cited in patent US20240261237A1, “REDUCING SIDE EFFECTS OF NMDA RECEPTOR ANTAGONISTS” (Seelos Therapeutics, Inc., priority 2021, published 2024).

This data set concerns the target NMDA receptor. To be noted: cited from earlier work.

Turning to `CNC1(c2ccccc2Cl)CCCCC1=O` (racemic) [racemic ketamine, (R)-2-(2-chlorophenyl)-2-(methylamino)cyclohexanone and (S)-2-(2-chlorophenyl)-2-(methylamino)cyclohexanone], the Ki (as a rule, the dissociation constant of the complex between target and ligand, obtained from inhibition or displacement) is about 1060 nM.
